Assay results as given in ChEMBL document CHEMBL1153119, “Design and synthesis of orally-active and selective azaindane 5HT2c agonist for the treatment of obesity” (Bioorg Med Chem Lett, 2010).

Amino acid sequences for entries named in this document (tags omitted).
UniProt P41595, whole entry: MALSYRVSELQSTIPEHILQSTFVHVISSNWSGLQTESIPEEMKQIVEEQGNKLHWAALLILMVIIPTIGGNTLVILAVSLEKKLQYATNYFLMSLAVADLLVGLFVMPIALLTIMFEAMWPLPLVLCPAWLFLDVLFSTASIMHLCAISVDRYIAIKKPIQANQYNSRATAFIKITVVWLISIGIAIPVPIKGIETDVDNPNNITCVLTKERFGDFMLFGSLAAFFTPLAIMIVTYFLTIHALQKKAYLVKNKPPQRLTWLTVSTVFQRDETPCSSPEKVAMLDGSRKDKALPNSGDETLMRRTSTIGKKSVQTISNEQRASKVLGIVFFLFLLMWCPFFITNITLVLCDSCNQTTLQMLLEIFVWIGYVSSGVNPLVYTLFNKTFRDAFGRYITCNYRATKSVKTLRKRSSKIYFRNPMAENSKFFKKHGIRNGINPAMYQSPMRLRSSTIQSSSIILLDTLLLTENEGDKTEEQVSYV

Biological target: 5-hydroxytryptamine receptor 2B (Homo sapiens, UniProt P41595)
Assay: Agonist activity against human 5HT2B receptor by FLIPR assay relative to 5HT
Type: functional

Work on `Clc1ccccc1O[C@@H]1CCCc2ccc(N3CCNCC3)nc21` yielded an Activity of 20%.
`Clc1ccccc1O[C@H]1CCCc2ccc(N3CCNCC3)nc21` gave an Activity of 61%.
